Paper PMC10884005, “Euglena’s atypical respiratory chain adapts to the discoidal cristae and flexible metabolism” (Nature Communications, 2024)

Chains of the proteins cited; added tags and fusions are not shown. Lines headed by an entry give the natural chain unless they say otherwise; changes in a name come on top.
UniProt Q34463: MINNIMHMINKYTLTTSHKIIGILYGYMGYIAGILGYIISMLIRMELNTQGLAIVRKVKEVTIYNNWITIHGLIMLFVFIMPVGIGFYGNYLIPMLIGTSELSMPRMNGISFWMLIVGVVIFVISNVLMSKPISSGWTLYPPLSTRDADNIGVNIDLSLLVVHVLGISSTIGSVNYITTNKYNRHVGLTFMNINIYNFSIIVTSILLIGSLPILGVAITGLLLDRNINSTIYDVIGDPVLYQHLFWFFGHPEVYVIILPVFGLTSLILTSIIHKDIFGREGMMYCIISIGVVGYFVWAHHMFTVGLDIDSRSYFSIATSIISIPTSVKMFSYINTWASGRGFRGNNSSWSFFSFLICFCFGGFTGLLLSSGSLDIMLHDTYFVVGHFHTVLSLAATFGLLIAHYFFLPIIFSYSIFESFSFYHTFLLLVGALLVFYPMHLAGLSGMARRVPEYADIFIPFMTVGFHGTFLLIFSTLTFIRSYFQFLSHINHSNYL

Molecular target: Eg-CIV in Eg-SC I + III2 + IV (Euglena gracilis, UniProt Q34463)
Test: Eg-cyt c re-oxidation at […] nm
Conditions: 10 nM Eg-SC I + III2 + IV, 20 μM DQ, 100 μM Eg-cyt c, 250 μM NADH, pH 7.4, room temperature

## [N-]=[N+]=N
  inhibition at 100 mM: CIV inhibitor sodium azide specifically inhibited Eg-cyt c re-oxidation
